{
  "source": "patent US20040116293A1",
  "about": "“Enhanced herbicide composition” (priority 2002, published 2004)",
  "system": "Xanthi-nc tobacco",
  "assay": "Potentiation rating of Aatrex Nine-O (atrazine) herbicidal activity on Xanthi-nc tobacco relative to equimolar salicylic acid",
  "type": "in vivo, Nicotiana tabacum (tobacco)",
  "text": "In all examples, deionized ultra-pure water was used in preparing solutions. Spray solutions were used as soon as possible after mixing.\nIn all herbicide applications, plants were sprayed with a sufficient volume to insure good coverage, to the point of runoff of the spray solution. […] For all treatments containing both an herbicide and a salicylate or SAR inducer, these materials were mixed and applied in a single spray solution (commonly known as a tank mix). After spraying, plants were moved to the greenhouse and arranged in randomized complete blocks. Plants were evaluated for herbicidal effects (phytotoxicity) after spraying by assessing damage according to percent leaf area affected. All the data were subject to an analysis of variance, and the mean separations were determined with Duncan's multiple range test at α=0.05.",
  "data": [
    {"smiles": "Cc1ccc(O)c(C(=O)O)c1", "note": "[5-Methylsalicylic acid]", "values": [
      {"measurement": "Potentiation of the herbicidal activity of atrazine compared with salicylic acid (in words)", "value": "no potentiation"}
    ]}
  ]
}
